Results reported in article PMC6034706 (ChemMedChem, 2017).

Key:
[1] = test system: VIM2 expressing E. coli; type: cell-based; details: relative to untreated cells
[2] = test system: E. coli; experiment: Cell viability assay, bacterial growth; type: cell-based; details: relative to untreated cells
[3] = target: VIM2 (Escherichia coli, UniProt Q5U7L7); type: biochemical, P. aeruginosa

Compound | relative percentage growth, VIM2 expressing E. coli, Amox (−) ([1]; compound alone) | relative percentage growth, VIM2 expressing E. coli, Amox (+) ([1]; with 50 μM amoxicillin) | relative percentage growth, E. coli, Amox (−) ([2]; compound alone) | relative percentage growth, E. coli, Amox (+) ([2]; with 50 μM amoxicillin) | fold difference in Ki relative to compound 3 [3] | LE (ligand efficiency) ([3]; LE = -1.38 log (Ki) / N, N = number of heavy atoms)
[Na+].[O-]n1ccccc1=S [Compound 2b] | 11% | 2.1% | 5.3% | 1.9% | 20 fold | 1.15
On1ccccc1=S [Compound 2, 1-Hydroxypyridine-2-thione] |  |  |  |  | 20 fold | 
